Reference: patent US10030004B2, “Compounds and methods of use” (Medivation Technologies LLC, priority 2014, dated 2018)
Like-named read-outs stand apart in the source and are kept apart here.

Sequences of proteins named here, by UniProt entry; tags and fusion partners are left off. Residues count along the entry.
UniProt Q04771, 21-509: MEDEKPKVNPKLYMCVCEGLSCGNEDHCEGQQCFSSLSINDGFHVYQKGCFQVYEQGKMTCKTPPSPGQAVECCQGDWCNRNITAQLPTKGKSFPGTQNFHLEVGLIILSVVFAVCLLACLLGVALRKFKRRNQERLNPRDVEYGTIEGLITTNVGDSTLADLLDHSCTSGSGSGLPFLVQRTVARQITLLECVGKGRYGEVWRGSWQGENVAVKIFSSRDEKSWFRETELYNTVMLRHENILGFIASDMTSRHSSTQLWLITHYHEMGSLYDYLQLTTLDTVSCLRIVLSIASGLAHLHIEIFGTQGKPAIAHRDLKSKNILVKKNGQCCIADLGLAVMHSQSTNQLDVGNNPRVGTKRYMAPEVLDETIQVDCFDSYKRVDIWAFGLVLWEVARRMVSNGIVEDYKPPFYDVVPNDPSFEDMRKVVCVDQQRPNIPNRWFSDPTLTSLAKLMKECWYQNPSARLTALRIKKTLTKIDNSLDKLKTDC
UniProt P36894, 24-532: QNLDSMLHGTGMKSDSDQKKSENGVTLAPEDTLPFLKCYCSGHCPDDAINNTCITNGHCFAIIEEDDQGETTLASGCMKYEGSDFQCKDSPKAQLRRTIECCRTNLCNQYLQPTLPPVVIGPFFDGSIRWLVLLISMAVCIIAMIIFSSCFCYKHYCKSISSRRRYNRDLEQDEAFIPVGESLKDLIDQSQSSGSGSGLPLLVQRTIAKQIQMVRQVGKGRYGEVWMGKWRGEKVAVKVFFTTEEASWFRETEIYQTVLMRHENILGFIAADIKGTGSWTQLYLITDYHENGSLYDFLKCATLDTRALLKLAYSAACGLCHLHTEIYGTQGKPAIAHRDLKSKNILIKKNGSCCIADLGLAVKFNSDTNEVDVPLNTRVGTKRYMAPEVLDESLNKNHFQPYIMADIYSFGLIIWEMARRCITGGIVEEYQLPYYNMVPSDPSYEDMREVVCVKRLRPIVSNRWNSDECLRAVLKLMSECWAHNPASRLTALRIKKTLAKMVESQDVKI
UniProt O00238, 14-502: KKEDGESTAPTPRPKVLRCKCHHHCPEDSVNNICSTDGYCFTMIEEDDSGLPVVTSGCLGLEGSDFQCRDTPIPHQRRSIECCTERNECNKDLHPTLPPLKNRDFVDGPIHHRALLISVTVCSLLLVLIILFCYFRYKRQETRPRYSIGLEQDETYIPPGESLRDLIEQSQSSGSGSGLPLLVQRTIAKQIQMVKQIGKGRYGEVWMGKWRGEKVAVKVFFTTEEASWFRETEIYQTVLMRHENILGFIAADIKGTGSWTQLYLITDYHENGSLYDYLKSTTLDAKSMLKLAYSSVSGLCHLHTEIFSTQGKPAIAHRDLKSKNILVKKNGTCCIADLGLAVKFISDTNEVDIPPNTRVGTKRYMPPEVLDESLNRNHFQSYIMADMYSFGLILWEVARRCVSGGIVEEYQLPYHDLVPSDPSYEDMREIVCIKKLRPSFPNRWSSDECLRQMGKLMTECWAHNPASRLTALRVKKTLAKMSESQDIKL
UniProt P37023, 22-503: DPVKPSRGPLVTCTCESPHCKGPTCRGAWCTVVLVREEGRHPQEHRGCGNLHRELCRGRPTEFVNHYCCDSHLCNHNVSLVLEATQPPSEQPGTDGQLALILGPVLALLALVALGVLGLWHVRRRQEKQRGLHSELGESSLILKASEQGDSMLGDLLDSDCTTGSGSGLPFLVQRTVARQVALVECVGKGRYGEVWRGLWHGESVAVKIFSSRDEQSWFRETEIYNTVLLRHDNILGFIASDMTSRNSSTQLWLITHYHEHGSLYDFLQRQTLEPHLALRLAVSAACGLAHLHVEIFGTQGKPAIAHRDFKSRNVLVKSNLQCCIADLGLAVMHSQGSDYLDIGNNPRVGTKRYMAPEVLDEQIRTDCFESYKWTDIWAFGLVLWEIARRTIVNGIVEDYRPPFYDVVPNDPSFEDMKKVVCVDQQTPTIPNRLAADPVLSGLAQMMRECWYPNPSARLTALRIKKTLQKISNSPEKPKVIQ
UniProt P36896, 24-505: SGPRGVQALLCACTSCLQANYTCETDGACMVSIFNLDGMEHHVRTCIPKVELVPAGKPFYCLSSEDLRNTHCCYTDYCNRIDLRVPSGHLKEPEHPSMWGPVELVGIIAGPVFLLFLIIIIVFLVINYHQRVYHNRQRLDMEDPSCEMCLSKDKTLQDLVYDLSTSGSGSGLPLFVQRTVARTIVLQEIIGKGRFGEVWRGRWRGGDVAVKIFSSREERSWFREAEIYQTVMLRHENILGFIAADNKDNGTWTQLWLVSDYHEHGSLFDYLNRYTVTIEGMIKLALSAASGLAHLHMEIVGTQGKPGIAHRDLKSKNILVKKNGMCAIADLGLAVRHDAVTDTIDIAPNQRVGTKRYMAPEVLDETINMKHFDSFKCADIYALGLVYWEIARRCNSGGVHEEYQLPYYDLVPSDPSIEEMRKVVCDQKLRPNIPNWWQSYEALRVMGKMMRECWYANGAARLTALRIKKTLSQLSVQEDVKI
UniProt P36897, 34-503: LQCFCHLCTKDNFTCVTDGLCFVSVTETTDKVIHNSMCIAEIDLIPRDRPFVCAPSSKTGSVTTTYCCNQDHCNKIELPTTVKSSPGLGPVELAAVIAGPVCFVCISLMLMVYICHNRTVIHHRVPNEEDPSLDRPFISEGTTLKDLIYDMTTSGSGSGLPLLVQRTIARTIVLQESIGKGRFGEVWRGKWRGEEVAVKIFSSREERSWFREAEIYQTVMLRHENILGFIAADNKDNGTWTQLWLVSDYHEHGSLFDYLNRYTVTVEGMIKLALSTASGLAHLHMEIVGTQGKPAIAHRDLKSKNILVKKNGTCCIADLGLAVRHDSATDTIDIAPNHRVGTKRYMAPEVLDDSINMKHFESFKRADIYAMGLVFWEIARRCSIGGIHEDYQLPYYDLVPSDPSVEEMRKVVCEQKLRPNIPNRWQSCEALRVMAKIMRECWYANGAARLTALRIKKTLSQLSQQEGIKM

Tests used:
ALK2 (ACVR1) = ALK2 (ACVR1) (Homo sapiens (Human), UniProt Q04771); assay: In vitro kinase assay, ALK2; type: biochemical; conditions: 10 μM ATP; read-out: Inhibition of ALK2 IC50
ALK3 (BMPR1A) = ALK3 (BMPR1A) (Homo sapiens (Human), UniProt P36894); assay: In vitro kinase assay, ALK3; type: biochemical; conditions: 10 μM ATP; read-out: Inhibition of ALK3 IC50
ALK6 (BMPR1B) = ALK6 (BMPR1B) (Homo sapiens (Human), UniProt O00238); assay: In vitro kinase assay, ALK6; type: biochemical
p-SMAD2 = p-SMAD2 inhibition, Western Blot Analysis in TGFβ-stimulated MDA-MB-231 cells; type: cell-based; conditions: TGFβ 2 ng/mL, triplicate; for inhibition at 0.1 µM / inhibition at 0.5 µM: Homo sapiens; for inhibition at 0.1 µM / Average p-SMAD2 inhibition @ 0.1 μM (% Inh): 0.1 μM compound; for inhibition at 0.1 µM: read-out: Average p-SMAD2 inhibition @ 0.1 μM (% Inh); for inhibition at 0.5 µM / Average p-SMAD2 inhibition @ 0.5 μM (% Inh): 0.5 μM compound; for inhibition at 0.5 µM: read-out: Average p-SMAD2 inhibition @ 0.5 μM (% Inh)
ALK1 (ACVRL1) = ALK1 (ACVRL1) (Homo sapiens (Human), UniProt P37023); assay: In vitro kinase assay, ALK1; type: biochemical; conditions: read-out: Inhibition of ALK1 IC50
ALK4 (ACVR1B) = ALK4 (ACVR1B) (Homo sapiens (Human), UniProt P36896); assay: In vitro kinase assay, ALK4; type: biochemical; conditions: 10 μM ATP; read-out: Inhibition of ALK4 IC50
ALK5 (TGFBR1) = ALK5 (TGFBR1) (Homo sapiens (Human), UniProt P36897); assay: In vitro kinase assay, ALK5; type: biochemical; conditions: 10 μM ATP; read-out: Inhibition of ALK5 IC50

| SMILES | inhibition at 0.1 µM (p-SMAD2) [%] | inhibition at 0.5 µM (p-SMAD2) [%] | further results |
| --- | --- | --- | --- |
| C=C(C)c1cnc(-c2cc(Cl)ccc2F)cc1Nc1ccncc1C(=O)NC1CC1 [compound 27, 4-[[2-(5-chloro-2-fluoro-phenyl)-5-isopropenyl-4-pyridyl]amino]-N-cyclopropyl-pyridine-3-carboxamide] | – | – | IC50 (ALK2 (ACVR1)): > 100 µM; IC50 (ALK3 (BMPR1A)): > 100 µM; IC50 (ALK6 (BMPR1B); 10 μM ATP, read-out: Inhibition of ALK6 IC50): > 100 µM |
| C=C(C)c1cnc(-c2cc(Cl)ccc2F)cc1Nc1ccncc1C(=O)NC(C)(C)CO [compound 8, 4-[[2-(5-chloro-2-fluoro-phenyl)-5-isopropenyl-4-pyridyl]amino]-N-(2-hydroxy-1,1-dimethyl-ethyl)pyridine-3-carboxamide] | 58.7 | 94.3 | – |
| C=C(C)c1cnc(-c2cc(Cl)ccc2F)cc1Nc1ccncc1C(=O)NCCO [compound 26, 4-[[2-(5-chloro-2-fluoro-phenyl)-5-isopropenyl-4-pyridyl]amino]-N-(2-hydroxyethyl)pyridine-3-carboxamide] | 64 | 89 | – |
| C=C(C)c1cnc(-c2cc(Cl)ccc2F)cc1Nc1ccncc1C(=O)N[C@@H](C)CO [7a, (S)-4-(2-(5-chloro-2-fluorophenyl)-5-(prop-1-en-2-yl)pyridin-4-ylamino)-N-(1-hydroxypropan-2-yl)nicotinamide] | 74.3 | 99.3 | – |
| C=C(C)c1cnc(-c2cc(Cl)ccc2F)cc1Nc1ccncc1C(=O)N[C@H](C)CO [7b, (2R)-4-[[2-(5-chloro-2-fluoro-phenyl)-5-isopropenyl-4-pyridyl]amino]-N-(2-hydroxy-1-methyl-ethyl)pyridine-3-carboxamide] | 36.3 | 78.7 | – |
| CC(C)c1cnc(-c2ncccc2F)cc1Nc1ncnc2[nH]ccc12 [compound 30, 2-(3-fluoropyridin-2-yl)-5-(propan-2-yl)-N-{7H-pyrrolo[2,3-d]pyrimidin-4-yl}pyridin-4-amine] | 59.7 | 70.3 | – |
| CC(C)c1cnc(-c2cc(Cl)ccc2F)cc1Nc1ccncc1C(=O)NC[C@H](C)O (single isomer, unassigned) [2a] | – | – | Average p-SMAD2 inhibition @ 0.1 μM (% Inh) (p-SMAD2): 26.33 % Inh; Average p-SMAD2 inhibition @ 0.5 μM (% Inh) (p-SMAD2): 77.67 % Inh |
| Fc1ccc(Cl)cc1-c1cc(Nc2ccnc3[nH]ccc23)c(C2CC2)cn1 [compound 32, 2-(5-chloro-2-fluorophenyl)-5-cyclopropyl-N-{1H-pyrrolo[2,3-b]pyridin-4-yl}pyridin-4-amine] | – | – | IC50 (ALK6 (BMPR1B)): > 10 µM |
| COc1cnc(-c2cc(Cl)ccc2F)cc1Nc1ccncc1C(=O)NC[C@H](C)O (single isomer, unassigned) [13a] | – | – | Average p-SMAD2 inhibition @ 0.1 μM (% Inh) (p-SMAD2): 59.00 % Inh; Average p-SMAD2 inhibition @ 0.5 μM (% Inh) (p-SMAD2): 93.67 % Inh |
| CC(C)c1cnc(-c2ncccc2F)cc1Nc1ccnc2[nH]ccc12 [compound 29, 2-(3-fluoropyridin-2-yl)-5-(propan-2-yl)-N-{1H-pyrrolo[2,3-b]pyridin-4-yl}pyridin-4-amine] | 58 | 67.7 | – |
| C=C(C)c1c(Nc2ccncc2C(=O)NC[C@H](C)O)cc(-c2cc(Cl)ccc2F)nc1N (single isomer, unassigned) [23a] | 46.3 | 93.7 | – |
| CC(C)c1cnc(-c2cc(Cl)ccc2F)cc1Nc1ccncc1C(=O)NCC(N)=O [compound 15, N-(2-amino-2-oxo-ethyl)-4-[[2-(5-chloro-2-fluoro-phenyl)-5-isopropyl-4-pyridyl]amino]pyridine-3-carboxamide] | 80.3 | 97.3 | – |
| CCc1cnc(-c2cc(Cl)ccc2F)cc1Nc1ccncc1C(=O)NC[C@H](C)O (single isomer, unassigned) [11a] | – | – | Average p-SMAD2 inhibition @ 0.1 μM (% Inh) (p-SMAD2): 44.67 % Inh; Average p-SMAD2 inhibition @ 0.5 μM (% Inh) (p-SMAD2): 96.00 % Inh |
| CC(=O)NCCNC(=O)c1cnccc1Nc1cc(-c2cc(Cl)ccc2F)ncc1C(C)C [compound 14, N-(2-acetamidoethyl)-4-[[2-(5-chloro-2-fluoro-phenyl)-5-isopropyl-4-pyridyl]amino]pyridine-3-carboxamide] | 45 | 92.3 | – |
| CC(C)c1cnc(-c2ccccc2)cc1Nc1ccncc1C(=O)NC[C@H](C)O [compound 28, N-(2-hydroxypropyl)-4-[(5-isopropyl-2-phenyl-4-pyridyl)amino]pyridine-3-carboxamide] | 2.33 | 51.3 | – |
| CC(C)c1cnc(-c2cc(Cl)ccc2F)cc1Nc1ncncc1C(=O)NC[C@H](C)O (single isomer, unassigned) [12a] | – | – | Average p-SMAD2 inhibition @ 0.1 μM (% Inh) (p-SMAD2): 64.33 % Inh; Average p-SMAD2 inhibition @ 0.5 μM (% Inh) (p-SMAD2): 93.00 % Inh |
| C=C(C)c1cnc(-c2cc(Cl)ccc2F)cc1Nc1n[nH]cc1C(=O)NC[C@H](C)O (single isomer, unassigned) [20a] | – | – | IC50 (ALK1 (ACVRL1)): > 100 µM; IC50 (ALK4 (ACVR1B)): > 1000 µM; IC50 (ALK5 (TGFBR1)): > 100 µM; IC50 (ALK6 (BMPR1B)): > 1000 µM |
| CC(C)c1cnc(-c2cc(Cl)ccc2F)cc1Nc1ccncc1C(=O)NCCNS(C)(=O)=O [compound 18, 4-[[2-(5-chloro-2-fluoro-phenyl)-5-isopropyl-4-pyridyl]amino]-N-[2-(methanesulfonamido)ethyl]pyridine-3-carboxamide] | 31.3 | 82.7 | – |
